Literature values in patent US20070264702A1 (priority 2003, published 2007).

Conditions: cited from earlier work

For salicylate, the “therapeutic doses measured in plasma” value is listed as “higher than 4.6 mM”.
